Here are results for four compounds from patent US8846656B2, “Tetrahydropyrido-pyridine and tetrahydropyrido-pyrimidine compounds and use thereof as C5a receptor modulators” (Novartis AG, priority 2011, dated 2014).

The chains behind the UniProt entries cited, without tags or fusion partners. Where a name states a change or a piece, a line headed by the entry shows the natural chain unless it says otherwise.
UniProt P21730: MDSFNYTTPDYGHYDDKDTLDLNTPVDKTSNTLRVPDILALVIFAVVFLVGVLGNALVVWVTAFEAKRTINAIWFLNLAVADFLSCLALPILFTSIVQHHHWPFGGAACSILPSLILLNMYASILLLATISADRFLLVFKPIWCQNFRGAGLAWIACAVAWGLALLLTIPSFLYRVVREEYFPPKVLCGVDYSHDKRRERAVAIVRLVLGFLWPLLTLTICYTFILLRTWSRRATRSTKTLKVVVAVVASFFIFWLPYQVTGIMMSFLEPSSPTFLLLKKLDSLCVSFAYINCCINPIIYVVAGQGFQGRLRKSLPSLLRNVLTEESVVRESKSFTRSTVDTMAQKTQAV

One experiment has as its system CD11b. The experiment is described as follows: Human whole blood CD11b up-regulation assay. Type of experiment: cell-based. The settings on record: 2 nM human C5a, CD15+ granulocytes, read-out: hCD11b IC50. On the procedure: Whole blood was collected in sodium heparin tubes and the assay started within 2 hours of the blood draw. The blood was incubated with compounds in 1% DMSO (dimethyl sulfoxide) at room temperature for 10 minutes with gentle rocking. 2 nM of human C5a was then added for 15 minutes at room temperature with gentle rocking. Following the C5a incubation period cells were washed once with cold FACS (fluorescence-activated cell sorting) buffer (phosphate buffered saline+0.5% bovine serum albumin) FITC (fluorescein isothiocyanate) mouse anti-human CD15 and PE-Cy5 (phycoerythrin-cyanine 5) mouse anti-human CD11b antibodies (Becton Dickinson) were gently mixed with the cells and allowed to incubate for 30 minutes on ice protected from the light. Cells were then washed three times with cold FACS buffer. Red blood cells (RBC) were lysed by incubating with BD FACS lysis buffer (Becton Dickinson) for 10 minutes at room temperature. Cells were pelleted and the lysing procedure was repeated until all RBCs were lysed. The remaining leukocytes were resuspended in BD lysis buffer. Samples were acquired on the LSR^11 flow cytometer and 10,000 events of the CD15+ granulocyte population were collected. The CD11b median fluorescence intensity of the CD 15+ cell population was evaluated using FACSDiva software (Becton Dickinson).

The target in the next experiment is human C5aR (Homo sapiens (Human), UniProt P21730). Description: FLIPR assay: inhibition of C5a-mediated calcium mobilization. The class given is cell-based. The settings on record: stable cell line over expressing human C5aR & Gα15, human C5a at EC50 (0.1-0.25 nM). On the procedure: Compounds were tested for their ability to inhibit C5a-mediated calcium mobilization using a stable cell line over expressing the human C5aR & the Gα15 protein on the FLIPR (Fluorescent Imaging Plate Reader) Tetra system. Cells were maintained in culture media containing DMEM (Dulbecco's Modified Eagle Medium) with 4.5 g/L glucose, 10% fetal bovine serum, 100 U/mL, 1× non-essential amino acid, and 250 μg/mL G418 (Geneticin). Prior to testing of compounds, cells were plated at 10,000 cells/well in clear bottom 384-well black plate, and incubated overnight at 37° C. with 5% CO2. On the day of experiment, culture media was removed, and replaced with assay buffer HBSS (Hanks' Balanced Salt Solution) with 20 mM HEPES (4-(2-hydroxyethyl)-1-piperazineethanesulfonic acid) and 0.1% BSA (bovine serum albumin) BSA containing calcium 5 dye (Molecular Devices) and 2.5 mM probenecid. After 1 hour incubation at 37° C., 5% CO2 for 60 min, cells were pre-incubated with compounds for 30 minutes at room temperature, in 1% DMSO (dimethyl sulfoxide).
(In general: Calcium assays in cells follow changes in intracellular calcium, usually with a dye or a luminescent sensor.)

The IC50 is the concentration at which inhibition is half-maximal.

For the compound `CCO[C@@H]1CCN(c2nc(-c3c(C)ccc4[nH]nc(C)c34)nc3c2CN(c2c(Cl)c(C4CC4)nn2C)CC3)CC1(C)C` [Example 55-H, (R)-6-(4-chloro-3-cyclopropyl-1-methyl-1H-pyrazol-5-yl)-2-(3,5-dimethyl-1H-indazol-4-yl)-4-(4-ethoxy-3,3-dimethylpiperidin-1-yl)-5,6,7,8-tetrahydropyrido[4,3-d]pyrimidine], in the experiment on CD11b, the IC50 came to 4 nM.

`Cc1cccc(C)c1-c1nc2c(c(N3CCCC(O)C3)n1)CN(c1cc(C(C)C)nn1C)CC2` (racemic) [Example 16-V, racemic 1-(2-(2,6-dimethylphenyl)-6-(3-isopropyl-1-methyl-1H-pyrazol-5-yl)-5,6,7,8-tetrahydropyrido[4,3-d]pyrimidin-4-yl)piperidin-3-ol]: the IC50 on human C5aR was 338 nM.

For `Cc1ccc2[nH]nc(C)c2c1-c1nc2c(c(N3CC[C@@H]4OC[C@]4(C)C3)n1)CN(c1c(Cl)c(C3CC3)nn1C)CC2` (racemic) [Example 69-L, (1S*,6S*)-3-(6-(4-chloro-3-cyclopropyl-1-methyl-1H-pyrazol-5-yl)-2-(3,5-dimethyl-1H-indazol-4-yl)-5,6,7,8-tetrahydropyrido[4,3-d]pyrimidin-4-yl)-1-methyl-7-oxa-3-azabicyclo[4.2.0]octane], the IC50 at human C5aR is 1 nM.

As for `Cc1ccc(C(C)C)cc1N1CCc2nc(-c3c(C)ccc4[nH]ncc34)cc(C)c2C1` [Example 41-D, 6-(5-Isopropyl-2-methylphenyl)-4-methyl-2-(5-methyl-1H-indazol-4-yl)-5,6,7,8-tetrahydro-1,6-naphthyridine], at human C5aR, the IC50 turned out to be 49 nM.
